# Literature values as cited in US20040115666A1, “Method for identifying compounds modulating reverse cholesterol transport” (priority 2001, published 2004).
# The chains behind the UniProt entries cited, without tags or fusion partners. Where a name states a change or a piece, a line headed by the entry shows the natural chain unless it says otherwise.
# UniProt Q96RI1: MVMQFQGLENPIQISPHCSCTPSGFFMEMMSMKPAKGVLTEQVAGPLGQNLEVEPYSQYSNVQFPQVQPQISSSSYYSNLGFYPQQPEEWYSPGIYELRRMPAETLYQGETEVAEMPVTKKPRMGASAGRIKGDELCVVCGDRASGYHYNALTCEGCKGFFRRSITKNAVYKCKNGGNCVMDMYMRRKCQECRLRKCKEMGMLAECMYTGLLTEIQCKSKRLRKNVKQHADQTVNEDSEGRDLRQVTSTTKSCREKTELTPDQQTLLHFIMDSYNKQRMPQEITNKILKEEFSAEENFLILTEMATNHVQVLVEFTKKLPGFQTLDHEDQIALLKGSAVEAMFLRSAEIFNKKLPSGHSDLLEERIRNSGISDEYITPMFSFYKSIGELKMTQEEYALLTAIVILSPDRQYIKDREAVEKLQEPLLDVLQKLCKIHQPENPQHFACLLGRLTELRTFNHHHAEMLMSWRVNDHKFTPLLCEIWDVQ
# Molecular target: T1, FXR (Homo sapiens, UniProt Q96RI1)
# T1 sequence (Q96RI1 1-472 isoform Q96RI1-2): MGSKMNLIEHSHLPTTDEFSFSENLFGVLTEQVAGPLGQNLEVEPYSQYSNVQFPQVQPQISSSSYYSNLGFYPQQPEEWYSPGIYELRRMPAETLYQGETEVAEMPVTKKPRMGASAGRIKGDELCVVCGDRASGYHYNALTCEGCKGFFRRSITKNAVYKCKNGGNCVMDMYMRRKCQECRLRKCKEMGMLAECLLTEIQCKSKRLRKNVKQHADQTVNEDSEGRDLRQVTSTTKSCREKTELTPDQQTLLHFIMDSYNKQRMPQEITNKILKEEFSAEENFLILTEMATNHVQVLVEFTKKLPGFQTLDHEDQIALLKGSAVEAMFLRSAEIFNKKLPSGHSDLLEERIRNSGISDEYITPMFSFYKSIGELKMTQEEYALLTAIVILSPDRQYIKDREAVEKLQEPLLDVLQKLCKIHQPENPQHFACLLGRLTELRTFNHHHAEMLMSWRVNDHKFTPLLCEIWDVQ
# Set-up: expressed in transfected cells; host or cells: HepG2
# Settings: Goodwin et al., Mol Cell., 2000; cited from earlier work
compound,measurement,value
CC(C)c1onc(-c2c(Cl)cccc2Cl)c1COc1ccc(/C=C/c2cccc(C(=O)O)c2)c(Cl)c1 [GW4064],FXR activation,strong specific activator
